# Source: ChEMBL document CHEMBL1128179, “Structure-activity study of tripeptide thrombin inhibitors using alpha-alkyl amino acids and other conformationally constrained amino acid substitutions” (J Med Chem, 1995)
# By UniProt entry, the sequences of proteins in these tests, tags left out. Residues count along the entry.
# UniProt P00747, 97-580 limits assumed: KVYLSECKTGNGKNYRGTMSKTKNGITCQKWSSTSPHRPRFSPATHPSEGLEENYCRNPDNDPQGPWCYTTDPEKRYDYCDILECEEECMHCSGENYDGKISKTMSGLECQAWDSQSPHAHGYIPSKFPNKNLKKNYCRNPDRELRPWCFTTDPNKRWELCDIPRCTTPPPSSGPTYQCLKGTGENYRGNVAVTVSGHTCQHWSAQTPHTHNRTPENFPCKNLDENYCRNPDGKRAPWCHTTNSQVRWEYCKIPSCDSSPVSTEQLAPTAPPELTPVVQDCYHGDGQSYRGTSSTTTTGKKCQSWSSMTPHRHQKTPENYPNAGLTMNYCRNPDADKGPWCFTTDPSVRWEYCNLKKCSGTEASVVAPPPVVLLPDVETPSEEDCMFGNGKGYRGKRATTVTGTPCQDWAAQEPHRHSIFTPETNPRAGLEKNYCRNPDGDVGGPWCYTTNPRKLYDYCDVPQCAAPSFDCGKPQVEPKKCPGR
# UniProt P00747, 581-810 limits assumed: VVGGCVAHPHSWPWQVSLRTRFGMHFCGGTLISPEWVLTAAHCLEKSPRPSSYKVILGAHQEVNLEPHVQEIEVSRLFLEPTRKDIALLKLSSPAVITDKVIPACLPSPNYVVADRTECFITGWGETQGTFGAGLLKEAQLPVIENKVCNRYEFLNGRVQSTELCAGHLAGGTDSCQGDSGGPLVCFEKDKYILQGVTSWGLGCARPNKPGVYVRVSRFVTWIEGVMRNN
# Target: Plasminogen (Homo sapiens, UniProt P00747)
# Assay: In vitro Enzyme Inhibitory activity measured against Plasmin
structure (smiles),measurement,value
N=C(N)NCCC[C@@H](C=O)NC(=O)[C@@H]1CCCN1C(=O)[C@@H]1Cc2ccccc2CN1,IC50,1.5 µM
